## AlphaSeq binding of Ab-14 light chain variants to a spike HR2 peptide

Target peptide (SARS-CoV-2 spike, HR2 region): PDVDLGDISGINAS

Ab-14 is the parent antibody, in scFv form: VH, then three GGGGS repeats, then VL. The heavy chain is unchanged in all variants.
VH: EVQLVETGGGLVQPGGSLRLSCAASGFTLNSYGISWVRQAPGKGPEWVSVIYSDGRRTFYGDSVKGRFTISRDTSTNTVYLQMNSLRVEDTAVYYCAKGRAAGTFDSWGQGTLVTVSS
VL: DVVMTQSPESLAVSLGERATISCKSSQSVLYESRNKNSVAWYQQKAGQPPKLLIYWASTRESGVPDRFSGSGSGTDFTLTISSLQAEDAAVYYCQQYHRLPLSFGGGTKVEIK

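The parent was found by panning a naive human phage display library on the peptide. Library AAYL50 holds single substitutions and randomly drawn double and triple substitutions in the CDRs. Affinity was read by AlphaSeq, a pooled yeast mating assay with surface-displayed partners. Mating (16 h, 30 °C) was followed by selection of diploids and sequencing of their barcodes. Read counts were normalised to the haploid input and turned into Kd by a linear fit to BCL2-family pairs of known affinity, for each replicate. There are three technical replicates.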

Variants are written as CDR1, CDR2 and CDR3 of the light chain (limits as in the source). Parent: KSSQSVLYESRNKNSVA, WASTRES, QQYHRLPLS. Scale: log10 of Kd in nM, estimated from mating counts; low values are strong binders. Where no diploid with the target was found in that replicate, the entry reads "nd": below detection, most likely a poor binder, though not proof of it. Background: pairings of library AAYL50 with three empty control strains gave a value in 18% of cases (median 4.19, 5th percentile 2.99). Values in that range, when seen in few replicates, are hard to tell from nonspecific mating. The control count says in how many pairings with the empty strains this scFv gave a signal, with their mean in brackets.

CDR-L1,CDR-L2,CDR-L3,log10 Kd (nM) by replicate,control signals
KSSQSSLYETRNKNSVA,WASTRES,QQYHRLPLG,2.39 3.29 2.68,1/9 (4.06)
KSSQSVGYKSRNKNSVA,WASTRES,LQYHRLPLS,nd nd nd,3/9 (3.96)
KSSQSVLYESRNGNSWA,WASTRES,QQYHRLPSS,nd nd nd,2/9 (4.85)
KPSQSVLYEHRNKNSVA,WASTRES,QQYHRMPLS,3.89 3.20 4.09,1/9 (3.73)
KSSQSVLYESRVDNSVA,WASTRES,QQYHILPLS,1.15 1.50 1.30,0/9
KSSQSVLYESRNVNSVA,WASTNES,QQYHVLPLS,nd 4.52 nd,2/9 (4.71)
KSSQSVTYEMRNKNSVA,WASTRES,QQHHRLPLS,2.93 2.89 2.93,0/9
KSSQSVLYERRNKNSVA,WANTRES,QQYHRLPLL,2.09 2.00 1.91,2/9 (5.01)
KHSQSVYYESRNKNSVA,WASLRES,QQYHRLPLS,1.38 1.73 1.29,0/9
KSSQSVLWESRNKNSVA,WASDGES,QQYHRLPLS,4.75 nd nd,4/9 (4.44)
KSSQSVLYESRNANSVA,WAATRES,QQYHRLPES,3.78 3.55 nd,1/9 (3.85)
KSSQSVLYESKNHNSVA,WASTRES,QQYHRPPLS,nd nd nd,0/9
KSCQSRLYESQNKNSVA,WASTRES,QQYHRLPLS,1.50 1.67 1.81,2/9 (4.62)
KSSQSVLYERRNKNSIA,WASTRES,QQYHQLPLS,1.25 1.30 1.41,5/9 (4.25)
SSSASVLYESRNKNSVA,WASTRES,QQYHRLSLS,1.13 2.79 1.53,0/9
KSSQSVLYESRNGNSVA,WASVRES,QQYHRLPLS,0.30 0.65 0.40,1/9 (4.67)
KSSQSVLKESRNKNSVA,WASTRES,QQYLRQPLS,4.00 3.07 4.56,2/9 (4.02)
KSSQSYLYESRGKNSVA,WASTRES,QQYHRLCLS,4.12 nd nd,1/9 (4.22)
KSSQSVLYESRNFHSVA,WASTRES,QHYHRLPLS,nd nd nd,0/9
KSSQSQLYESRNKWSVA,WASTRES,QQYHRLQLS,2.32 nd 2.84,0/9
PSSQSVLYESRNKNSVA,IASTRES,QQYHRLVLS,nd 5.56 nd,2/9 (4.26)
KSSQSVLYESMNKNSVA,WASTREM,QQYHRLPLS,0.72 0.87 0.55,1/9 (5.20)
KSSQSVLYESRNKNSVA,WAMTRES,QQYHRQPLS,nd nd nd,0/9
KVSQSVLYESRNLNSVA,WASTRES,QQYHRLPLS,0.01 0.31 0.11,8/9 (5.36)
KSSGSVLYESRFKNSVA,WASTRES,QQYHRAPLS,1.09 0.70 0.99,0/9
KSSQSVLYESNNKNSVA,WASVRES,QQYHRLCLS,2.46 2.41 2.89,3/9 (4.12)
KSSQSVLYESRNKFSVA,WASTRES,QQYHRLPLS,1.00 1.42 1.32,0/9
KSSQSVLYEYRNKNSVA,WASTREI,QQYTRLPLS,1.88 1.81 1.90,6/9 (4.48)
YSSQSELYESRNKNSVA,WASTRES,QQYHRLPLS,1.26 1.50 1.80,0/9
KGSQSVLYESRNKNSVA,WASTRES,QQYHHLPQS,nd 3.29 nd,0/9
KSSSSVLYESRNKNSVA,QASTRES,QQYHRLPLS,0.58 0.65 0.52,2/9 (4.59)
KSSQSQLYESRNKCSVA,WASTRES,QQYHRLPLS,2.07 2.27 1.98,5/9 (4.45)
PSSQSVLYESRNMNSVA,WGSTRES,QQYHRLPLS,nd nd nd,0/9
KWSQKVLYESRNKNSVA,WASTRES,QQYHRLRLS,1.72 1.99 3.03,2/9 (4.43)

A selection of 5 entries from above:

CDR-L1,CDR-L2,CDR-L3,log10 Kd (nM) by replicate,control signals
KSSQSVLYESRNGNSVA,WASVRES,QQYHRLPLS,0.30 0.65 0.40,1/9 (4.67)
KSSQSVTYEMRNKNSVA,WASTRES,QQHHRLPLS,2.93 2.89 2.93,0/9
KGSQSVLYESRNKNSVA,WASTRES,QQYHHLPQS,nd 3.29 nd,0/9
PSSQSVLYESRNKNSVA,IASTRES,QQYHRLVLS,nd 5.56 nd,2/9 (4.26)
KSSQSVGYKSRNKNSVA,WASTRES,LQYHRLPLS,nd nd nd,3/9 (3.96)

From the AlphaSeq antibody data of Engelhart et al. 2022 (doi:10.1038/s41597-022-01779-4), copy in the FLAb collection.